Test results: publication PMC6033295, “The Effects of the Honey-Roasting Process on the Pharmacokinetics of the Six Active Compounds of Licorice” (Evidence-based Complementary and Alternative Medicine : eCAM, 2018)

Test: Stability of six compounds in rat plasma (QC samples)
Assay type: in vitro ADME
Settings: At -80°C for 1 month, rat plasma QC sample, n = 6
Experimental: The stabilities of the six compounds in rat plasma were evaluated by analyzing QC samples under different conditions. […] Long-term stability was tested by storing QC samples at -80°C for one month. RSD was evaluated by analyzing six replicate samples. The stability of the six compounds was evaluated under various conditions. QC samples stored in a freezer at -80°C remained stable for one month. […] The stability data were within the acceptance range of 85%-115% (Table 3).

In the case of `CC1(C)[C@@H](O)CC[C@]2(C)[C@H]3C(=O)C=C4[C@@H]5C[C@@](C)(C(=O)O)CC[C@]5(C)CC[C@@]4(C)[C@]3(C)CC[C@@H]12` [GA, glycyrrhetinic acid], the “Stability, Average” value (high concentration level) is reported as 97.3%.

In the case of `O=C1C[C@@H](c2ccc(O)cc2)Oc2cc(O)ccc21` [LG, liquiritigenin], the “Stability, Average” value (medium concentration level) is reported as 97.3%.
